Source: patent US20260158017A1, “KIF18A INHIBITOR” (WIGEN BIOMEDICINE TECHNOLOGY (SHANGHAI) CO., LTD., priority 2021, published 2026)

Amino acid sequences for entries named in this document (tags omitted). Residues count along the entry.
UniProt Q8NI77, 1-467 limits assumed: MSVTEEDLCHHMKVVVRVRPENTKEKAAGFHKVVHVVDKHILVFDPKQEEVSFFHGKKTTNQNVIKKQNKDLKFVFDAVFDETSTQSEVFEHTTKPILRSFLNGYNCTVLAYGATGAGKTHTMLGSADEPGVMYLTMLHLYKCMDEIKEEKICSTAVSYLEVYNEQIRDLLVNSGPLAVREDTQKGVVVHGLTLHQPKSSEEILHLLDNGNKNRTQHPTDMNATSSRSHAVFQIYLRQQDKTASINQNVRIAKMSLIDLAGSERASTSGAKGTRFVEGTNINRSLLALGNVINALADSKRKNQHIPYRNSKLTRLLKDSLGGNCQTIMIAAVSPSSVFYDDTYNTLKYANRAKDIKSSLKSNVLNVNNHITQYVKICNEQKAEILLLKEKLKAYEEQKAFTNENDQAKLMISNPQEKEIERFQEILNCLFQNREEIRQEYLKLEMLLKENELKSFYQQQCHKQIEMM
UniProt P02550, whole entry partner: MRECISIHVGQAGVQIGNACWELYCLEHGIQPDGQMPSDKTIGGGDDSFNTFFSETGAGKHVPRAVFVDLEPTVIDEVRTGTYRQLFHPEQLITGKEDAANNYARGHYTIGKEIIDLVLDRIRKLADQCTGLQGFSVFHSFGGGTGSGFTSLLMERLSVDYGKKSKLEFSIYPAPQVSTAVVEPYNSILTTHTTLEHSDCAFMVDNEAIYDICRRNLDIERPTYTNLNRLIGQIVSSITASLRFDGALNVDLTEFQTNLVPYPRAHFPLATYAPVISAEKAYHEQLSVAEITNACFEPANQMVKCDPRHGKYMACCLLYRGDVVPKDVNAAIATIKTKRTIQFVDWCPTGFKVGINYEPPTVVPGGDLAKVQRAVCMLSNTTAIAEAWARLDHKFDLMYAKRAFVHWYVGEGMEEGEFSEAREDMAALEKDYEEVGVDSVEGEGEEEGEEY
UniProt P02554, whole entry partner: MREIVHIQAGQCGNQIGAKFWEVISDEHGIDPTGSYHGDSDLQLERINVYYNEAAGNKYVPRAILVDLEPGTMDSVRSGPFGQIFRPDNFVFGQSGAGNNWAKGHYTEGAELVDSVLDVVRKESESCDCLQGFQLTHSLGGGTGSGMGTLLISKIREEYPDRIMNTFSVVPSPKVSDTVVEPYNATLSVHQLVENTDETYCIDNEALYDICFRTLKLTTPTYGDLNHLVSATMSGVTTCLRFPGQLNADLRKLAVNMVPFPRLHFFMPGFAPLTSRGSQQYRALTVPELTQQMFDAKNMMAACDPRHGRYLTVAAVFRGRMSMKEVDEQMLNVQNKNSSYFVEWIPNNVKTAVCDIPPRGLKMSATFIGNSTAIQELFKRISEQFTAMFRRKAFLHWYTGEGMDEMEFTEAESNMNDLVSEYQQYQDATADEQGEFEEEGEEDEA

Molecular target: Recombinant human KIF18A (1-467His-tagged) protein (Homo sapiens, UniProt Q8NI77)
Assay: KIF18A enzyme assay (microtubule-stimulated ATPase activity, ADP-Glo)
Settings: read-out: Inhibitory activity against KIF18A IC50; 30 nM KIF18A, 75 μM ATP, 30 μg/mL pig microtubules

## C[C@@H]1CN(c2cc(NC(=O)c3ccc(NS(=O)(=O)[C@H](C)CO)cc3N3CCC4(CC3)CC4)ccc2OCF)CCO1
  IC50: < 100 nM

## O=C(Nc1ccc(OCF)c(N2CC3CC3C2)c1)c1ccc(NS(=O)(=O)CCO)cc1N1CCC2(CC1)CC2 (centres unmarked)
  IC50: < 100 nM
